Test results taken from publication PMC8876276, “NanoSIMS Imaging Reveals the Impact of Ligand-ASO Conjugate Stability on ASO Subcellular Distribution” (Pharmaceutics, 2022).

Chains of the proteins cited; added tags and fusions are not shown. Residues count along the entry.
UniProt P43220, 24-463, species assumed: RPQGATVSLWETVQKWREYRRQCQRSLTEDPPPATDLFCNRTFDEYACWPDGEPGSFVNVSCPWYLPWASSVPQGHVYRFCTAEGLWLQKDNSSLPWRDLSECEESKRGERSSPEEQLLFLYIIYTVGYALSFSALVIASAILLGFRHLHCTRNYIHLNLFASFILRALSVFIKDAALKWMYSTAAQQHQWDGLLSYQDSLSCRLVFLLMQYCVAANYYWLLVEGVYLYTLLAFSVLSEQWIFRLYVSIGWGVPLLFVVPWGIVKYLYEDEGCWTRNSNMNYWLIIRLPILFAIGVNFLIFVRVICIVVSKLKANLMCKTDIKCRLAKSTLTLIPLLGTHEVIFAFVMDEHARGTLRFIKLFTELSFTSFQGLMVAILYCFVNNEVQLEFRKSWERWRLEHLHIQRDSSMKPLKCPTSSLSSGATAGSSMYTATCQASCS

Biological target: T1, GLP1R (Homo sapiens, UniProt P43220)
T1 construct: expressed in transfected cells
Assay: GLP1R membrane fluorescence (internalization) by confocal microscopy in GLP1R-HEK293 cells
Assay type: cell-based

## exenatide
5-30 min exposure
  time of initiation of GLP1R membrane fluorescence loss: ≤ 5 min
  time to plateau of GLP1R membrane fluorescence loss: 15 to 30 min
30 min incubation, 37 °C, anti-GLP1R Mab7F38, at least 10 fields, duplicate wells
  reduction of GLP1R membrane fluorescence: ~ 50%
